Reference: PMC9016349

target: HOIL‐1 (haem‐oxidised IRP2 ubiquitin ligase‐1), full‐length untagged human, wild type (human) (UniProt Q9BYM8)

rate of HOIL‐1‐catalysed ubiquitylation of maltoheptaose in vitro (30°C, 2 μM ubiquitin oligomer) | Substance
> 100 fold | Lys63‐linked ubiquitin dimer (untagged) (from UniProt P0CG48 1-76)
> 100 fold | Lys63‐linked ubiquitin tetramer (untagged) (from UniProt P0CG48 1-76)
> 100 fold | Met1‐linked ubiquitin dimer (untagged linear diubiquitin) (from UniProt P0CG48 1-76; P0CG48 1-76) (natural protein)
> 100 fold | Met1‐linked ubiquitin tetramer (untagged linear tetraubiquitin) (from UniProt P0CG48 1-76; P0CG48 1-76; P0CG48 1-76; P0CG48 1-76) (natural protein)
